Assay results published in ChEMBL document CHEMBL4007396, “New diphenylmethane derivatives as peroxisome proliferator-activated receptor alpha/gamma dual agonists endowed with anti-proliferative effects and mitochondrial activity” (Eur J Med Chem, 2017).

Key:
Assay type in all cases: cell-based
[1] = target: T1, Peroxisome proliferator-activated receptor alpha (Homo sapiens) (UniProt Q07869); assay: Potency index, ratio of Wy-14,643 concentration to compound concentration required for agonist activity at PPARalpha in human HepG2 cells assessed as increase in CAC protein expression level
T1 sequence (whole entry): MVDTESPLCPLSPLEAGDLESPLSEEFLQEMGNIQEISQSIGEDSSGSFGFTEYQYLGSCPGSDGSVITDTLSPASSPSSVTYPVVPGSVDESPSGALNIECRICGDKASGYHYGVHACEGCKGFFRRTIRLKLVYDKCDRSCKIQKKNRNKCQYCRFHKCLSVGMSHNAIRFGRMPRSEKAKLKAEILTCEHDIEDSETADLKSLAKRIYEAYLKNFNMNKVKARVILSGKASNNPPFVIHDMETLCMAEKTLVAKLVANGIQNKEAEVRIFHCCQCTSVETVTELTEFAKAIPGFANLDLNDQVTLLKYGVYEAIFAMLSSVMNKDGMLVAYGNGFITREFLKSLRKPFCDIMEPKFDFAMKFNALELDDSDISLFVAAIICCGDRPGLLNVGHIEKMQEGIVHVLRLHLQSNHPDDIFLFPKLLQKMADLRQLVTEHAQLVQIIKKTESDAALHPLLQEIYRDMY

[2] = target: T1, Peroxisome proliferator-activated receptor alpha (Homo sapiens); assay: Potency index, ratio of Wy-14,643 concentration to compound concentration required for agonist activity at PPARalpha in human HepG2 cells assessed as increase in CPT1 protein expression level
[3] = target: T1, Peroxisome proliferator-activated receptor alpha (Homo sapiens); assay: Potency index, ratio of Wy-14,643 concentration to compound concentration required for PPARalpha transcription positive regulatory loop mediated upregulation of PPARalpha mRNA level in human HepG2 cells
[4] = target: T1, Peroxisome proliferator-activated receptor alpha (Homo sapiens); assay: Potency index, ratio of Wy-14,643 concentration to compound concentration required for PPARalpha transcription positive regulatory loop mediated PPARalpha protein expression level in human HepG2 cells
[5] = target: T1, Peroxisome proliferator-activated receptor alpha (Homo sapiens); assay: Potency index, ratio of Wy-14,643 concentration to compound concentration required for agonist activity at PPARalpha in human HepG2 cells assessed as increase in CAC mRNA level
[6] = target: T1, Peroxisome proliferator-activated receptor alpha (Homo sapiens); assay: Potency index, ratio of Wy-14,643 concentration to compound concentration required for agonist activity at PPARalpha in human HepG2 cells assessed as increase in CPT1 mRNA level
[7] = target: T1, Peroxisome proliferator-activated receptor alpha (Homo sapiens); assay: Potency index, ratio of Wy-14,643 concentration to compound concentration required for agonist activity at PPARalpha in human HepG2 cells assessed as increase in mitochondrial mass

Measured: Ratio

Cc1oc(-c2ccccc2)nc1COc1ccc(Cc2ccc(OC(C)C(=O)O)cc2)cc1 (configuration not stated)
50: all assays above
